From PubChem BioAssay AID2283149 (EPA ToxCast)
The list shows a part of the results, in another mix than the full data. Results filed as inconclusive are left out. The source made the active and inactive calls. How the source made its calls: active means hit-call score of the fitted dose curve at least 0.9, where 1 is the maximum; inconclusive means response in the unintended direction; inactive means score below 0.9.

Sequences of proteins named here, by UniProt entry; tags and fusion partners are left off. A change or cut given only in a name is not applied to a line headed by its entry.
UniProt P48729: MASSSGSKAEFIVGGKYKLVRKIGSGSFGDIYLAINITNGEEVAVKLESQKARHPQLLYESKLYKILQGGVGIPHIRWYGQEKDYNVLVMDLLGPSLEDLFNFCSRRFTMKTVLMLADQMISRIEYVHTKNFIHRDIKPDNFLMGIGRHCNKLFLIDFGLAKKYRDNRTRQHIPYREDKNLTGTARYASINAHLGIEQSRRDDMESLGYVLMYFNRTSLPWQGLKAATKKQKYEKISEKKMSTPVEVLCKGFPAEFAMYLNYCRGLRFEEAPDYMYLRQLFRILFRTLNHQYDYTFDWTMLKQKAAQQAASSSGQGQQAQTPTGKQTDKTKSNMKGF

What follows are compounds tested against human Casein Kinase 1-alpha (CK1a), CSNK1A1 (gene 1452) (UniProt P48729) (assay: NVS_ENZ_hCK1a: NovaScreen (NVS) Enzymatic Assay for human Casein Kinase 1-alpha (CK1a)).
Experimental: NVS_ENZ_hCK1a is a biochemical, single-readout assay that uses extracted gene-proteins in a cell-free assay. Measurements were taken 1 hour after chemical dosing in a 384-well plate.NVS_ENZ_hCK1a is one of one assay component(s) measured or calculated from the NVS_ENZ_hCK1a assay. It is designed to make measurements of enzyme activity, a form of enzyme reporter, as detected with fluorescence intensity signals by Fluorescence and electrophoretic mobility shift technology.Data from the assay component NVS_ENZ_hCK1a was analyzed into 1 assay endpoint. This assay endpoint, NVS_ENZ_hCK1a, was analyzed in the positive analysis fitting direction relative to DMSO as the negative control and baseline of activity. Using a type of enzyme reporter, loss-of-signal activity can be used to understand changes in the enzymatic activity as they relate to the gene CSNK1A1. Furthermore, this assay endpoint can be referred to as a primary readout, because this assay has produced multiple assay endpoints where this one serves a enzymatic activity function. To generalize the intended target to other relatable targets, this assay endpoint is annotated to the kinase intended target family, where the subfamily is serine/threonine kinase. […]

`O=C1C2CC=CCC2C(=O)N1SC(Cl)(Cl)C(Cl)Cl` (stereo unspecified) was tested. Which outcome did it give?
Its outcome is “inactive”.
